Measurements from ChEMBL document CHEMBL1154924, “Carbonic anhydrase activators: Activation of the beta-carbonic anhydrase from the pathogenic yeast Candida glabrata with amines and amino acids” (Bioorg Med Chem Lett, 2010).

Assays:
[1] = target: T1, Carbonic anhydrase (Candida glabrata CBS 138) (UniProt Q6FTL6); assay: Activation of Candida glabrata recombinant carbonic anhydrase by stopped flow CO2 hydration method; conditions: Nakaseomyces glabratus
T1 sequence (whole entry): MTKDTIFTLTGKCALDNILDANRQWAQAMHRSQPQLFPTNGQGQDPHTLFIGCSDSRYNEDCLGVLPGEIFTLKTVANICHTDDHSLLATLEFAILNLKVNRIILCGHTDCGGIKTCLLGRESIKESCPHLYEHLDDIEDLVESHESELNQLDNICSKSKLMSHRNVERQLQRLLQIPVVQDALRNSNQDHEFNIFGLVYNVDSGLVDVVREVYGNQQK
Procedure, shortened: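 Recombinant yeast enzyme; stopped-flow CO2 hydration at 25 °C in 20 mM Tris (pH 8.3) and 20 mM NaClO4, with 0.2 mM phenol red read at 557 nm over 10 s. CO2 was 1.7–17 mM. Activators came from 10 mM aqueous stocks and were preincubated 15 min at room temperature with enzyme. Uncatalyzed rates were subtracted. KA was fitted from catalytic enhancement versus activator concentration; mean ± standard error of three assays.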

[2] = target: T2, Carbonic anhydrase (Methanobacterium thermoautotrophicum) (UniProt Q50565); assay: Activation of archaea Methanobacterium thermoautotrophicum recombinant carbonic anhydrase by stopped flow CO2 hydration method; conditions: Methanothermobacter thermautotrophicus
T2 sequence (whole entry): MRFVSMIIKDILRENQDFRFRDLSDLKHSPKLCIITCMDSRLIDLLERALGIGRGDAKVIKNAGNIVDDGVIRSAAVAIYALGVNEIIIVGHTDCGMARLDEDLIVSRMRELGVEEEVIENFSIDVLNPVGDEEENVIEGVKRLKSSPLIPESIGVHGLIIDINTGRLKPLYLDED

Structure (SMILES)	Ka [1] [µM]	Ka [2] [µM]
N[C@H](Cc1ccccc1)C(=O)O	15.7	10.3
N[C@@H](Cc1ccccc1)C(=O)O	24.1	70
